ChEMBL document CHEMBL6092220 (J Med Chem, 2024)

Columns and labels:
[1] = Plasma protein binding in mouse assessed as unbound fraction at 10 uM; format: ADME, cell-free
[2] = Plasma protein binding in mouse at 10 uM; format: ADME, cell-free
[3] = Plasma protein binding in dog at 10 uM; format: ADME, cell-free, Canis lupus familiaris
[4] = Plasma protein binding in human at 10 uM; format: ADME, cell-free
[5] = species on record: Homo sapiens; assay: Binding affinity to STAT5 (unknown origin) assessed as maximum inhibition by FP assay relative to control

Molecule `COC(=O)N1CC[C@H]2CC[C@@H](C(=O)N[C@@H](CCC(N)=O)C(=O)N[C@@H](Cc3ccc(F)c(F)c3)C(=O)N3CCC(CCC#Cc4cccc5c4CN(C4CCC(=O)NC4=O)C5=O)CC3)N2C(=O)[C@@H](NC(=O)c2cc3cc(C(F)(F)P(=O)(O)O)ccc3s2)C1` (stereo not given in full) has a Fu [1] of 0.3%, a PPB [2] of 99.7% and a PPB [3] of 98.3%. For the same molecule, the PPB [4] was 99.5%.
`NC(=O)CC[C@H](NC(=O)[C@@H]1CC[C@@H]2CCN(C(=O)CCCCCC#Cc3cccc4c3CN(C3CCC(=O)NC3=O)C4=O)C[C@H](NC(=O)c3cc4cc(C(F)(F)P(=O)(O)O)ccc4[nH]3)C(=O)N21)C(=O)NC(c1ccccc1)c1ccccc1` (stereo not given in full) gave an Imax [5] of 30%.
